Experimental data published in PubChem BioAssay AID602363 (Broad Institute, 2012).
The entries are a selection whose mix differs from that of the whole data set. Some structures show a salt or complex split into parts, the way the source records it. Calls of active or inactive are those of the source.

Experiment: UUG initiation codon usage in yeast – whole organism, S. cerevisiae, single point, plate reader, primary screen (AID 602363);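 further: firefly luciferase made from a UUG start codon reports start codon fidelity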
Conditions: S. cerevisiae UUG-firefly luciferase reporter, luminescence/redox ratio; at 18.7 µM; active compounds read high

| SMILES | activity score |
| --- | --- |
| O=[N+]([O-])c1cc([N+](=O)[O-])c(Nc2ccccn2)c([N+](=O)[O-])c1 | inactive: -21.1% |
| CC(C)CC(=O)NC(Sc1ccc(Cl)cc1)C(Cl)(Cl)Cl (configuration not stated) | inactive: -34.8% |
| O=C(NC(Sc1ccncn1)C(Cl)(Cl)Cl)c1ccccc1 (configuration not stated) | inactive: -8.91% |
| Oc1ccccc1CNc1ccccn1 | inactive: -12.3% |
| COc1ccccc1OP(C)(=O)Nc1ccc(C)cc1C (configuration not stated) | inactive: -46.8% |
| CP(=O)(Nc1ccccn1)Oc1ccccc1 (configuration not stated) | inactive: -15.9% |
| CCc1ccc(OP(C)(=O)O)cc1 | inactive: -9.4% |
| Cc1ccc(N/C(=N/P(=O)(N2CCOCC2)N2CCOCC2)N2CCOCC2)cc1 | inactive: 0.997% |
| COc1ccccc1OP(C)(=O)Nc1ccc(Br)cc1 (configuration not stated) | inactive: -16.2% |
| CN(C(=O)Cc1ccc(Cl)c(Cl)c1)[C@H]1CCCC[C@H]1N1CCCC1 | inactive: -1.88% |
| Cc1ccc(OP(=O)(Nc2nccs2)Oc2ccc(C)cc2)cc1 | inactive: -15.6% |
| COc1ccc(OP(C)(=O)Nc2ccccn2)cc1 (configuration not stated) | inactive: -9.84% |
| CN(C)CCOC(=O)C(O)(c1ccccc1)C1CCCC1 (configuration not stated) | inactive: -10.2% |
| Clc1ccc(Cl)c(NC2=NCC(CBr)S2)c1 (configuration not stated) | inactive: -15.6% |
| CN1CCCC(OC(=O)C(c2ccccc2)c2ccccc2)C1 (configuration not stated) | inactive: 2.91% |
| CP(=O)(Nc1ccc(Cl)cc1Cl)Oc1ccccc1 (configuration not stated) | inactive: -8.48% |
| Nc1cccc2ccc([As](=O)(O)O)cc12 | inactive: 11.3% |
| O=C(O)c1ccccc1[As](=O)(O)O | inactive: -5.52% |
| CC(=O)Nc1ccc([As](=O)(O)O)cc1 | inactive: 5.91% |
| CN(C)P(=O)(N(C)C)n1c(Nc2ccccc2)nnc1-c1ccccc1 | inactive: 4.18% |
| O=C1C(O)=C([N+](=O)[O-])C(=O)C(O)=C1[N+](=O)[O-] | inactive: -11.5% |
| CN(C(=O)Cc1ccc(Cl)c(Cl)c1)[C@H]1CCCC[C@@H]1N1CCCC1 | inactive: -6.74% |
| COc1ccccc1OP(C)(=O)Nc1ccc(C)c(C)c1 (configuration not stated) | inactive: -11.3% |
| CCOP(=O)(Nc1ccccc1)OCC | inactive: -15.1% |
| O=[N+]([O-])c1cccc(NC2=NCC(CBr)S2)c1 (configuration not stated) | inactive: -7.6% |

| SMILES | activity score |
| --- | --- |
| O=C(O)CNc1ccc([As](=O)(O)O)cc1 | inactive: -8.99% |
| O=P1(N(CCCl)CCCl)OCCCS1 (configuration not stated) | inactive: -9.95% |
| O=C(Nc1cc([As](=O)(O)O)ccc1O)c1ccccc1 | inactive: -13.8% |
| CCOC(=O)c1ccc(NP(C)(=O)Oc2ccc(Cl)cc2)cc1 (configuration not stated) | inactive: 4.36% |
| CP(=O)(OC12CC3CC(CC(C3)C1)C2)OC12CC3CC(CC(C3)C1)C2 | inactive: -5.67% |
| C[N+]1=C2C=CC=CC=C2SC12C([N+](=O)[O-])=CC([N+](=O)[O-])=C[C-]2[N+](=O)[O-] (configuration not stated) | inactive: -37% |
| Nc1ccc([As](=O)(O)c2ccc(N)cc2)cc1 | inactive: -12.8% |
| CC(C)(C)c1ccc(OP(C)(=O)O)cc1 | inactive: -7.59% |
| COc1ccccc1OP(C)(=O)Nc1ccccc1Br (configuration not stated) | inactive: -11% |
| CP(=O)(Nc1ccc(Cl)cc1)Oc1ccc(F)cc1 (configuration not stated) | inactive: -9.68% |
| CC(C)c1nc(Nc2ccccc2)n(P(=O)(N(C)C)N(C)C)n1 | inactive: -32% |
| c1cc(-c2nn[nH]n2)ccc1-c1nn[nH]n1 | inactive: -17.1% |
| CC1CCN(C(=O)Oc2c(Cl)cc(Cl)c3cccnc23)CC1 | inactive: -2.92% |
| COc1ccc(C2=NCC(CBr)S2)cc1 (configuration not stated) | inactive: 1.32% |
| COc1ccc(OP(C)(=O)Nc2ccc(Br)cc2)cc1 (configuration not stated) | inactive: 2.52% |
| CCN(CC)CC(O)COC(=O)C(O)(c1ccccc1)C1CCCCC1 (configuration not stated) | inactive: -4.05% |
| O=C(OCCCN1CCCC1)C(O)(c1ccccc1)C1CCCCC1 (configuration not stated) | inactive: -10.6% |
| COc1ccccc1OP(C)(=O)Nc1c(C)n(C)n(-c2ccccc2)c1=O (configuration not stated) | inactive: 1.19% |
| CC(=O)N1C2C3N(C(C)=O)C1C1N(C(C)=O)C(C(N1C(C)=O)N3C(C)=O)N2C(C)=O | inactive: -15.7% |
| O=[N+]([O-])c1cccc2n[nH]nc12 | inactive: -24.2% |
| CCc1nc2c(n1)c1c(non1O)c1c2no[n+]1[O-] | inactive: -23.8% |
| CCc1ccc(OP(C)(=O)Nc2cccnc2)cc1 (configuration not stated) | inactive: -16% |
| CP(=O)(Oc1ccccc1)N1CCOC1=O (configuration not stated) | inactive: -9.14% |
| CP(=O)(Nc1ccc2c(c1)OCCO2)Oc1ccccc1 (configuration not stated) | inactive: -11.8% |
| Cc1ccccc1NP(C)(=O)Nc1ccccc1C | inactive: -17.6% |

| SMILES | activity score |
| --- | --- |
| O=P(Nc1nccs1)(c1ccccc1)c1ccccc1 | inactive: -9.91% |
| CCOP(C)(=S)SCC(=O)NC(C)(CC)C(=O)O (configuration not stated) | inactive: -3.37% |
| c1nnnn1CCn1cnnn1 | inactive: -17% |
| O=[N+]([O-])c1ccc(OP2(=O)COCCO2)cc1 (configuration not stated) | inactive: -17.7% |
| CC(=O)NC(SC(=S)N(C)C)C(Cl)(Cl)Cl (configuration not stated) | inactive: 0.582% |
| O=[N+]([O-])c1ccc(O)c(/C=N/Nc2ccc([N+](=O)[O-])cc2[N+](=O)[O-])c1 | inactive: 22.2% |
| Cc1cc(-c2cccc3ccccc23)c(C)cn1.O=[N+]([O-])c1cc([N+](=O)[O-])c(O)c([N+](=O)[O-])c1 | inactive: -9.64% |
| O=[As](O)(c1ccccc1)c1ccc(O)cc1 | inactive: -14.9% |
| Nc1ccc([As](=O)(O)c2ccc([N+](=O)[O-])cc2)cc1 | inactive: -3.52% |
| Cc1c(C(c2ccc3c(c2)OCO3)c2c(C)n(C)n(-c3ccccc3)c2=O)c(=O)n(-c2ccccc2)n1C.O=[N+]([O-])c1cc([N+](=O)[O-])c(O)c([N+](=O)[O-])c1 | inactive: -13% |
| O=C(OC1CN2CCC1CC2)c1cccc(Cl)c1 (configuration not stated) | inactive: -23.6% |
| COc1ccc(N)c([N+](=O)[O-])c1[N+](=O)[O-] | inactive: 13.6% |
| COc1ccc(OP(C)(=O)Nc2cccc(Br)c2)cc1 (configuration not stated) | inactive: -11.7% |
| CN(C)C1(CNC(=O)c2ccc(Cl)c(S(N)(=O)=O)c2)CCCCC1 | inactive: -2.37% |
| O=P(Nc1ccccn1)(c1ccc(Br)cc1)c1ccc(Br)cc1 | inactive: -7.4% |
| C[C@H]1OP(=O)(Oc2ccccc2)[C@H](O)[C@H](O)[C@H]1N=[N+]=[N-] (some centres not stated) | inactive: -17.8% |
| O=P(Nc1nc2ccccc2s1)(c1ccccc1)c1ccccc1 | inactive: -10.2% |
| CN(C)CCOC(=O)C(O)(c1ccccc1)C1CCCCC1 (configuration not stated) | inactive: -19.1% |
| COc1ccc(NP(C)(=O)Oc2ccccc2OC)cc1 (configuration not stated) | inactive: -11.5% |
| CC(=O)NC(SC(=S)N(CC(C)C)CC(C)C)C(Cl)(Cl)Cl (configuration not stated) | inactive: -31.1% |
| COC(=O)c1cc2c(s1)N=C(c1ccccc1)N(C)P2(=O)N1CCOCC1 (configuration not stated) | inactive: -1.28% |
| Cc1c([N+](=O)[O-])cc([N+](=O)[O-])c(Br)c1[N+](=O)[O-] | inactive: -18.8% |
| CCC(=O)N1C2C3N(C(=O)CC)C1C1N(C(=O)CC)C(C(N1C(=O)CC)N3C(=O)CC)N2C(=O)CC | inactive: -5.48% |
| CCN(CC)CCCOC(=O)C(O)(c1ccccc1)C1CCCCC1 (configuration not stated) | inactive: 1.1% |
| O=C(OC1CN2CCC1CC2)c1ccccc1 (configuration not stated) | inactive: -18.9% |

| SMILES | activity score |
| --- | --- |
| CP(=O)(Nc1ccccc1)Oc1ccc(F)cc1 (configuration not stated) | inactive: -11.3% |
| CN(C)C(=O)Oc1noc2ccccc12 | inactive: -5.41% |
| O=[N+]([O-])c1cc([N+](=O)[O-])c(OC2CCCCC2O)c([N+](=O)[O-])c1 (configuration not stated) | inactive: -25.3% |
| CCCCCOc1ccc(NP(C)(=O)Oc2ccc(Cl)cc2Cl)cc1 (configuration not stated) | inactive: -6.86% |
| CC(NC(=O)COC(=O)C(O)(c1ccccc1)c1ccccc1)c1ccccc1 (configuration not stated) | inactive: 7.3% |
| CCNC(=S)/N=C(\N)N[N+](=O)[O-] | inactive: 1.23% |
| Cc1ccc(NP(=O)(Oc2cccc(C)c2)Oc2cccc(C)c2)nc1 | inactive: -18.7% |
| CCOC(=O)c1ccc(NP(C)(=O)Oc2ccc(F)cc2)cc1 (configuration not stated) | inactive: -7.67% |
| O=P1(N(CCCl)CCCl)OCCC2CCCCN21 (configuration not stated) | inactive: -19% |
| CC(=O)c1ccc(N2CC2c2ccncc2)cc1 (configuration not stated) | inactive: -26.6% |
| C[C@@H]1C=CCP(=O)(Oc2ccccc2)O1 (some centres not stated) | inactive: -21.9% |
| C[C@H]1OP(=O)(Oc2ccccc2)C[C@@H]2O[C@@H]21 (some centres not stated) | inactive: -10.1% |
| O=C(OCCN1CCN(CCOCc2ccccc2)CC1)C(O)(c1ccccc1)c1ccccc1 | inactive: -4.28% |
| Cc1ccccc1CN(C)C(=O)COC(=O)C(O)(c1ccccc1)c1ccccc1 | inactive: 9.28% |
| CC(=O)Nc1ccc(Oc2c([N+](=O)[O-])cc([N+](=O)[O-])cc2[N+](=O)[O-])cc1 | inactive: -0.107% |
| COc1ccc2c(c1O)-c1c(O)c(OC)cc3c1[C@H](C2)[N+](C)(C)CC3.O=[N+]([O-])c1cc([N+](=O)[O-])c([O-])c([N+](=O)[O-])c1[O-] | inactive: -6.42% |
| CC(=O)Nc1ccc([As](=O)(O)O)c(O)c1 | inactive: -22.5% |
| O=P1(Nc2nc3ccc(Cl)cc3s2)COc2ccccc2O1 (configuration not stated) | inactive: -21.9% |
| O=[N+]([O-])c1cc([N+](=O)[O-])c(Nc2ccc(Cl)cc2)c([N+](=O)[O-])c1 | inactive: -37.8% |
| CP(=O)(Nc1ccccc1F)Oc1ccccc1 (configuration not stated) | inactive: -7.58% |
| CCc1cc(O)c([N+](=O)[O-])c(C)c1[N+](=O)[O-] | inactive: -13.9% |
| CCCOP(=S)(Nc1nc(N)cc(=O)[nH]1)OCCC | inactive: -19.1% |
